Values quoted from earlier work as cited in patent US4594358A, “Analgesic method” (Eli Lilly and Company, priority 1985, dated 1986).

Test system: serotonin uptake
Settings: Fuller et al. 1975; Wong et al.; cited from earlier work

CNCCC(Oc1ccc(C(F)(F)F)cc1)c1ccccc1 (stereo not shown) [Fluoxetine, 3-(4-trifluoromethylphenoxy)-N-methyl-3-phenylpropylamine]
inhibition of serotonin uptake (in words): highly specific inhibitor of serotonin uptake
